Laboratory results taken from PMC8232895 (Drug Design, Development and Therapy, 2021).

Chains of the proteins cited; added tags and fusions are not shown. Residues count along the entry.
UniProt O42275, 24-633: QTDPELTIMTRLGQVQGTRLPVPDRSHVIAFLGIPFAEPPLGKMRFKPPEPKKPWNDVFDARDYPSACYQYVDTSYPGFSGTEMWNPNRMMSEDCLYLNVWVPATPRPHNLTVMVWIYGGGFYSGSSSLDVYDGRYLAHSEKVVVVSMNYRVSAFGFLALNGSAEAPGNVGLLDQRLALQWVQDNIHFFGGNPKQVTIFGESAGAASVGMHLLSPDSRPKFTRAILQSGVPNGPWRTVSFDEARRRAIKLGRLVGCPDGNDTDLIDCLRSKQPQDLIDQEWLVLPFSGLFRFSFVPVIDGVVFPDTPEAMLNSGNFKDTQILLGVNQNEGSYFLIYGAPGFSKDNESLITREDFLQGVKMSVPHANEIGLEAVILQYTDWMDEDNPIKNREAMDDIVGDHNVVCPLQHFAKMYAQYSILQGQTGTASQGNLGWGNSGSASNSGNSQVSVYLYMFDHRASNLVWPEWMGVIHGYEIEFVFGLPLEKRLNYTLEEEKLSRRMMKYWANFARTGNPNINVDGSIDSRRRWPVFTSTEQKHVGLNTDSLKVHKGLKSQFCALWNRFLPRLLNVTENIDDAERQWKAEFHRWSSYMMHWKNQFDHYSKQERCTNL
UniProt P81908, whole entry: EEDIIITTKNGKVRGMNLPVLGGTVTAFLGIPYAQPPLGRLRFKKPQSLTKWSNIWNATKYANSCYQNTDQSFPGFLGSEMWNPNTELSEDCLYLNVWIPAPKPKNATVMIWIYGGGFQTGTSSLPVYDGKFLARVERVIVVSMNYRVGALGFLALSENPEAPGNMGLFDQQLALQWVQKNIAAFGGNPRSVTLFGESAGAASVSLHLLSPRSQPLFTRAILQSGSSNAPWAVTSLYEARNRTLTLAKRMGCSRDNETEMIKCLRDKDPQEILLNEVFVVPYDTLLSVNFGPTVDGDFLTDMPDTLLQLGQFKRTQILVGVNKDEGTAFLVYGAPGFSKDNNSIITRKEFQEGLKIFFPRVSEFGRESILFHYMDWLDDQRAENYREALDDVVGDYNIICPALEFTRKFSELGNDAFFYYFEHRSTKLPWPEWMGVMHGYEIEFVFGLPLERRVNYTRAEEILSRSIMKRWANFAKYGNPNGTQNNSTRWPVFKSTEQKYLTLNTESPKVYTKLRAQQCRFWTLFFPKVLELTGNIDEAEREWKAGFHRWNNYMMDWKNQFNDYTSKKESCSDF

Experiments:
[1] = biological target: acetylcholinesterase (AChE) (Electrophorus electricus, UniProt O42275); settings: read-out: AChE IC50
[2] = biological target: butyrylcholinesterase (BChE) (Equus caballus, UniProt P81908)

With “({3-[(4-Methoxy-2-Nitrophenyl) Carbamoyl] Propanoyl} Zincio 3-[(2-Methoxy-5-Nitrophenyl) Carbamoyl] Propanoate Pyridine [AAZ8]” the IC50 [1] was 25 µM, the “BChE IC50” value ([2]; from dose-response curve) was 18 µg/mL and the IC50 ([2]; read-out: BChE IC50) was 26.5 µM.
